Literature values as cited in patent US20120157377A1, “METHODS TO ENHANCE NIGHT VISION AND TREATMENT OF NIGHT BLINDNESS” (priority 2012, published 2012).

Test system: MCF-7 human breast cancer cells
Settings: cited from earlier work

For insulin, the “increase of the cytotoxic effect of methotrexate by insulin” value is given as “up to 10,000 fold”.
